Where two headings read alike, the source gives them in different places.
Test: Water solubility, visual evaluation after 24 hours
From the text: As used herein, the term “solubility” in regard to water solubility includes cases where the sample completely dissolves in deionized water to form a homogeneous mixture, and cases where the sample is completely emulsified. As used herein, “completely” means that no mass of the sample remains in the deionized water.

[1] = in 100 g of water at 25° C., 24 hours

| Substance | Water solubility [1] | also measured |
| --- | --- | --- |
| Polyoxybutylenepolyoxypropylene glycol [UNIOL PB700] | – | Water solubility: <0.05 g |
| Dodecanoic acid (C12) monoester of butylene glycol [COMPOL BL] | <0.05 g | – |
| Isopropyl citrate | – | Water solubility (g): 20< g |
| Octadecanoic acid (C18) monoester of butylene glycol [COMPOL BS] | <0.05 g | – |
